Data on 76 molecules can be found in ChEMBL document CHEMBL1123670, “Inhibitors of cyclic AMP phosphodiesterase. 2. Structural variations of N-cyclohexyl-N-methyl-4-[(1,2,3,5-tetrahydro- 2-oxoimidazo[2,1-b]quinazolin-7-yl)-oxy]butyramide (RS-82856)” (J Med Chem, 1987).

Chains of the proteins cited; added tags and fusions are not shown. Lines headed by an entry give the natural chain unless they say otherwise; changes in a name come on top.
UniProt P27815: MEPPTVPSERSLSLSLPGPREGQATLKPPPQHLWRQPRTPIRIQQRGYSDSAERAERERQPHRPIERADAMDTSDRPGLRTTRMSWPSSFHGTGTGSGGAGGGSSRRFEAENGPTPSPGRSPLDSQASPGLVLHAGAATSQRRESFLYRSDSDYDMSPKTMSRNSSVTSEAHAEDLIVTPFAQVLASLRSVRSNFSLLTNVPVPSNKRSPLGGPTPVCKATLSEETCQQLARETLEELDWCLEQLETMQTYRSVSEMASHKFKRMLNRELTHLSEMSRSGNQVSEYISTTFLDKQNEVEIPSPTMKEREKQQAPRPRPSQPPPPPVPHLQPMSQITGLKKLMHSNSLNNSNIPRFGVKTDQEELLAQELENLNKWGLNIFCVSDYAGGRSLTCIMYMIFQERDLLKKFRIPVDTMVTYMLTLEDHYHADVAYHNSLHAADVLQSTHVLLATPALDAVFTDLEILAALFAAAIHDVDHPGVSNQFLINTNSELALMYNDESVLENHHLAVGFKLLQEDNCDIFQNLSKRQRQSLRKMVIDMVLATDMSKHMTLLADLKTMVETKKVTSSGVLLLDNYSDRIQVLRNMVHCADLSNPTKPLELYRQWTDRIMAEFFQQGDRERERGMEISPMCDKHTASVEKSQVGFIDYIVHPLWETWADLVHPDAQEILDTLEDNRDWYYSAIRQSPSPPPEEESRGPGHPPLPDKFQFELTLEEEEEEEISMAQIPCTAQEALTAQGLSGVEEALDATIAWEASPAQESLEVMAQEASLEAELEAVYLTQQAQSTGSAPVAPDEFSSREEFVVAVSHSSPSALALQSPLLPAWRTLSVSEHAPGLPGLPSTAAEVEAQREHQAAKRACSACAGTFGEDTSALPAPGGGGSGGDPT
UniProt Q14432: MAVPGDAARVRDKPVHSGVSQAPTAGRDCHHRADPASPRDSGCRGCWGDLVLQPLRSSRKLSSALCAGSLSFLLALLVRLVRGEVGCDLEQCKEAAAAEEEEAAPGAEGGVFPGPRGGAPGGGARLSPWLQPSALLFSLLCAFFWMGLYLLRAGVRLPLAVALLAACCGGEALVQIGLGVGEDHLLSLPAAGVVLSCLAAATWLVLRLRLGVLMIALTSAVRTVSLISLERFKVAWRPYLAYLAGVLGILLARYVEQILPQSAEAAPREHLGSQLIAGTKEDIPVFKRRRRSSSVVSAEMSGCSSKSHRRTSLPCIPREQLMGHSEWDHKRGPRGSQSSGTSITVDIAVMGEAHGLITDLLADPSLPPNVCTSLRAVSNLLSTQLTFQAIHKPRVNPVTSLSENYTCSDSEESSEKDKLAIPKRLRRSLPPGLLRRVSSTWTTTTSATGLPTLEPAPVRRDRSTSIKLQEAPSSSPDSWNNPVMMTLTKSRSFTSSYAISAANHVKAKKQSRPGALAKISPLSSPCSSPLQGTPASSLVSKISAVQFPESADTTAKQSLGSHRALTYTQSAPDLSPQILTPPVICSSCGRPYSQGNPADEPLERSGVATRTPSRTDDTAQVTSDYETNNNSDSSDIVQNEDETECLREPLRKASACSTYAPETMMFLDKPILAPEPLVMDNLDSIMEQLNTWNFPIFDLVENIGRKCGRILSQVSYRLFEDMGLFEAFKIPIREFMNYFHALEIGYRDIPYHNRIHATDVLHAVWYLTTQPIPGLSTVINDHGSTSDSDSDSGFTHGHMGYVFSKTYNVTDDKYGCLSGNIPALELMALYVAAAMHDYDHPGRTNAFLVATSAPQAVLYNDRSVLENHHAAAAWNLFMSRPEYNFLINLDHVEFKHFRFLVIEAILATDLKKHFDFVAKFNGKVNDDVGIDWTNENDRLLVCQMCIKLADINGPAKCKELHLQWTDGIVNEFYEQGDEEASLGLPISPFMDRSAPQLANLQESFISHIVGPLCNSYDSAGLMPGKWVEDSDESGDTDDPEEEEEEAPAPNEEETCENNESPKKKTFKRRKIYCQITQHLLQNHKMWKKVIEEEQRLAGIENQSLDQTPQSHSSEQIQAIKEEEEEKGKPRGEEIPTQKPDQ
UniProt Q08499: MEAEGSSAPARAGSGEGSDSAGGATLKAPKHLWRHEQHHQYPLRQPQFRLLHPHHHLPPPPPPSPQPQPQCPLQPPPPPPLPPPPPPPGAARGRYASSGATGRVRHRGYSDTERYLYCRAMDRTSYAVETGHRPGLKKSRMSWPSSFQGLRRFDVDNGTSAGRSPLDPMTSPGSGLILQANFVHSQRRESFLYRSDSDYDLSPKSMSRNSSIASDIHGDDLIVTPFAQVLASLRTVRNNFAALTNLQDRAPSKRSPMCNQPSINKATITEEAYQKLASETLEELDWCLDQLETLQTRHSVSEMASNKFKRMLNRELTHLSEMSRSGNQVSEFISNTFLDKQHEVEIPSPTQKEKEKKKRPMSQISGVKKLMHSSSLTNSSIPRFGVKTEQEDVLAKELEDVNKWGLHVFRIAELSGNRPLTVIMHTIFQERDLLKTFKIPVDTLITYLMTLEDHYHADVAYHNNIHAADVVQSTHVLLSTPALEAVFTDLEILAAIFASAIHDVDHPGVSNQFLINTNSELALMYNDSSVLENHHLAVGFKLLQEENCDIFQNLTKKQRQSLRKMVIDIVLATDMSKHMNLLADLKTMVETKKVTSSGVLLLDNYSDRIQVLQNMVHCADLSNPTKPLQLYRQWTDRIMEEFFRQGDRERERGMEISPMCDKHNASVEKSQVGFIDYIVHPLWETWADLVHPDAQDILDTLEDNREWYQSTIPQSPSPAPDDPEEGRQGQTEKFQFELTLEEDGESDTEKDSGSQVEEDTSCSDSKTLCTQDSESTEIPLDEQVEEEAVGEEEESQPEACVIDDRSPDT
UniProt Q07343: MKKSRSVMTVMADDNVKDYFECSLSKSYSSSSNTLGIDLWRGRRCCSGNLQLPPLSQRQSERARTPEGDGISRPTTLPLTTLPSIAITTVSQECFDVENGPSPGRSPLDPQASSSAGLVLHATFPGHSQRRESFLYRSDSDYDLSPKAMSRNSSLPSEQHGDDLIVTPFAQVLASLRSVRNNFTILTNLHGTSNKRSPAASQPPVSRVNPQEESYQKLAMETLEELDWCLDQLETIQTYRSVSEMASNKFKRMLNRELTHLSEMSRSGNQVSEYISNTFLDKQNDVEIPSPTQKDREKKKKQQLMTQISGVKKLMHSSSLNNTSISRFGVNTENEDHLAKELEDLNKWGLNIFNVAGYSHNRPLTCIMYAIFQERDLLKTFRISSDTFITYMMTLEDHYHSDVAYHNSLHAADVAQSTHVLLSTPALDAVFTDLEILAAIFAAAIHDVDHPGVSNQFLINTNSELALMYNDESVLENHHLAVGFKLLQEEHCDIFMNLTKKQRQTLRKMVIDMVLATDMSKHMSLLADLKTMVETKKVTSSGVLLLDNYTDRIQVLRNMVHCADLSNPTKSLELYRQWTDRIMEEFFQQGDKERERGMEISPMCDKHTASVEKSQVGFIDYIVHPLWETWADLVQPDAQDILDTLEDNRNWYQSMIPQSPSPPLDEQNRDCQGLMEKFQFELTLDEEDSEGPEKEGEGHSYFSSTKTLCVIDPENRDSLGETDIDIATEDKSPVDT
UniProt Q13370: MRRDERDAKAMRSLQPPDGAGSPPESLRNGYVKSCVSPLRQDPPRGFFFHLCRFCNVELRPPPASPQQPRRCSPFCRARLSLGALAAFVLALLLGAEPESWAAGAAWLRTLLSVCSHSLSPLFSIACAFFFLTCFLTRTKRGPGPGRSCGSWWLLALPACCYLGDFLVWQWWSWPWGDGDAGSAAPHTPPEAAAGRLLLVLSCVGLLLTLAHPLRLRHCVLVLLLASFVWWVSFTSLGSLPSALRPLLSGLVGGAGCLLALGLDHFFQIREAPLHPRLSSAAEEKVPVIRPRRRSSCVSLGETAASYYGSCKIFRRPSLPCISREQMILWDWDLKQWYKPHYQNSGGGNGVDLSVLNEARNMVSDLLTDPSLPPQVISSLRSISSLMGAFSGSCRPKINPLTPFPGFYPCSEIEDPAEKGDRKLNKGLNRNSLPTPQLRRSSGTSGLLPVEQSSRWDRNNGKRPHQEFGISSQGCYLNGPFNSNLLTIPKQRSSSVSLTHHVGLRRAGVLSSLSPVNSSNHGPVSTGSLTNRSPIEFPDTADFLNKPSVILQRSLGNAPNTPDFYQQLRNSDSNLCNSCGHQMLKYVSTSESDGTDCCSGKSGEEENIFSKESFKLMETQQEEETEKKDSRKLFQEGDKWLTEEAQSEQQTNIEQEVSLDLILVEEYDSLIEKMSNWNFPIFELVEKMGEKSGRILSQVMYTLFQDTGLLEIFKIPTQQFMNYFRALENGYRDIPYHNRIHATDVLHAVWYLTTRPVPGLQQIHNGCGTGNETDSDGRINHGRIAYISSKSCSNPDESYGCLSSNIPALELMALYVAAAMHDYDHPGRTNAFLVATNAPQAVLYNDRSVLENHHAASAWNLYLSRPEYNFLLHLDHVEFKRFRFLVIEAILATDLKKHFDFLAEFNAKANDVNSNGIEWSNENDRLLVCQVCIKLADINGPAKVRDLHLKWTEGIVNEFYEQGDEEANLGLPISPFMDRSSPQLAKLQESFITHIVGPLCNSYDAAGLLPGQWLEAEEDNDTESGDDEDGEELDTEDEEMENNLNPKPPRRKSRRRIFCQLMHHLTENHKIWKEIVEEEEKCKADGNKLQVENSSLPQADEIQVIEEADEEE
UniProt Q08493: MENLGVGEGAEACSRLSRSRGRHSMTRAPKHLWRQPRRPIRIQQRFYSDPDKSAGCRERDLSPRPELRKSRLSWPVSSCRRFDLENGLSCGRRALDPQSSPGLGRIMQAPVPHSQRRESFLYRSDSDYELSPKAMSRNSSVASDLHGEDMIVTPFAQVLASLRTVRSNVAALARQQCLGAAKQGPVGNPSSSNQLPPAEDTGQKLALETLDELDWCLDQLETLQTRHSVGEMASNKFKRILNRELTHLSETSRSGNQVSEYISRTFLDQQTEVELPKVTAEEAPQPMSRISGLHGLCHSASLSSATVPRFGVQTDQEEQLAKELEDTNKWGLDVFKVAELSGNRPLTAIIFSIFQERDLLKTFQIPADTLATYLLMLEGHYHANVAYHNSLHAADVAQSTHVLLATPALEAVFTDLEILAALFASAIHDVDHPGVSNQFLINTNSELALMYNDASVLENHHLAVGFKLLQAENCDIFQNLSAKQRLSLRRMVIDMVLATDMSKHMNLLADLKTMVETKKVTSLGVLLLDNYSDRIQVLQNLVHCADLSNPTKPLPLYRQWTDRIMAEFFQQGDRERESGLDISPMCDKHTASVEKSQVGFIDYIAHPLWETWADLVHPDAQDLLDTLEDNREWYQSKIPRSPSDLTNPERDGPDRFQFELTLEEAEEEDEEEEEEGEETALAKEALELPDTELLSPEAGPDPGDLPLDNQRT

SMILES strings stand for the structures. A value given as a limit tells only on which side of the number the result lay.

The first assay addresses Phosphodiesterase; PDE3 & PDE4 (Homo sapiens) (UniProt P27815+Q14432+Q08499+Q07343+Q13370+Q08493). The assay is described as follows: Selectivity index is the ratio of IC25 of dog heart PDE to IC50 of human platelet PDE. The settings on record: Canis lupus familiaris.
For the molecule `CN(C(=O)CCCOc1ccc2c(c1)CN1CCNC1=N2)C1CCCCC1`, the Ratio was determined as 0.8.

For `NC(=O)CN(C(=O)CCCOc1ccc2c(c1)CN1CC(=O)NC1=N2)C1CCCCC1`, the Ratio was 9.1.

`C=c1c(=O)[nH]c2n1Cc1cc(OCCCC(=O)N(C)C3CCCCC3)ccc1N=2`: the Ratio worked out at 16.7.

For `CN(C(=O)CCCOc1ccc2c(c1)CN1C(=N2)NC(=O)[C@@H]1CO)C1CCCCC1`, the Ratio is 3.27.

Regarding `CN(C(=O)CCCOc1cccc2c1CN1CC(=O)NC1=N2)C1CCCCC1`, the Ratio came to 0.75.

For `O=C1CN2Cc3cc(OCCCC(=O)OC4CCCCC4)ccc3N=C2N1`, the Ratio was 2.4.

For the molecule `CCOC(=O)CCCOc1ccc2c(c1)CN1CC(=O)NC1=N2`, the Ratio turned out to be 1.8.

`O=C1CN2Cc3cc(OCCCC(=O)NC4CCCCC4)ccc3N=C2N1`: the Ratio is 2.5.

`CC[C@H]1C(=O)NC2=Nc3ccc(OCCCC(=O)N(C)C4CCCCC4)cc3CN21`: the Ratio turned out to be 0.78.

On to `CN(C(=O)CCCOc1ccc2c(c1)CN1NC(=O)NC1=N2)C1CCCCC1`, for which the Ratio came out at 0.36.

Turning to `CN(C(=O)CCCOc1ccc2c(c1)CN1CC(=O)NC1=N2)C1CCCCCCC1`, the Ratio came to 0.7.

As to `COCCN(C(=O)CCCOc1ccc2c(c1)CN1CC(=O)NC1=N2)C1CCCCC1`, the Ratio was 7.7.

For `CN(C(=O)CCCCc1ccc2c(c1)CN1CC(=O)NC1=N2)C1CCCCC1`, the Ratio came to 1.1.

In the case of `CC(C)N(C(=O)CCCOc1ccc2c(c1)CN1CC(=O)NC1=N2)C1CCCCC1`, the Ratio came out at 4.7.

Regarding `CN(C(=O)OCCOc1ccc2c(c1)CN1CC(=O)NC1=N2)C1CCCCC1`, the Ratio amounted to 4.5.

Take `O=C1CN2Cc3cc(OCCCC(=O)N(CCCCCO)C4CCCCC4)ccc3N=C2N1`: the Ratio is 0.47.

For the molecule `CC(C)[C@H]1C(=O)NC2=Nc3ccc(OCCCC(=O)N(C)C4CCCCC4)cc3CN21`, the Ratio was less than 0.64.

Regarding `O=C1CN2Cc3cc(OCCCC(=O)N(CCCCO)C4CCCCC4)ccc3N=C2N1`, the Ratio stood at 1.1.

As for `CN(C(=O)CCCSc1ccc2c(c1)CN1CC(=O)NC1=N2)C1CCCCC1`, the Ratio was 1.86.

Take `CN(C(=O)CCCOc1ccc2c(c1)CN1CC(=O)NC1=N2)C1CCC(O)CC1` (stereo unspecified): the Ratio worked out at 2.4.

With `CN(C(=O)CCCOc1cccc2c1NC1=NC(=O)CN1C2)C1CCCCC1`, the Ratio was less than 0.016.

Consider `O=C1CN2Cc3cc(OCCCC(=O)N(CCCO)C4CCCCC4)ccc3N=C2N1`, for which the Ratio came out at 2.8.

Turning to `CN(C(=O)CCCOc1ccc2c(c1)CN1C(=N2)NC(=O)[C@@H]1c1ccccc1)C1CCCCC1`, the Ratio came to 1.1.

Turning to `O=C1CN2Cc3cc(OCCCC(=O)N(CCCCCCO)C4CCCCC4)ccc3N=C2N1`, the Ratio is 0.56.

`CN(C(=O)CCCOc1ccc2c(c1)CN1CC(=O)NC1=N2)C1CCCC1`: the Ratio is 0.5.

Take `CN(C(=O)CCCOc1ccc2c(c1)CN1C(=N2)NC(=O)C12CC2)C1CCCCC1`: the Ratio was found to be 4.9.

Take `CN(C(=O)CCCOc1ccc2c(c1)CN1C(=N2)NC(=O)[C@H]1c1ccccc1)C1CCCCC1`: the Ratio came to 1.

For `O=C(O)CCCOc1ccc2c(c1)CN1CC(=O)NC1=N2`, the Ratio stood at 0.46.

As for `CN(C(=O)NCCOc1ccc2c(c1)CN1CC(=O)NC1=N2)C1CCCCC1`, the Ratio amounted to 46.

In the case of `CN(C(=O)CCCOc1ccc2c(c1)CN1CC(=O)NC1=N2)C1CCCCC1` [LIXAZINONE], the Ratio was 0.4.

Turning to `CC1c2cc(OCCCC(=O)N(C)C3CCCCC3)ccc2NC2=NC(=O)CN21` (stereo unspecified), the Ratio is 2.4.

As for `CN(C(=O)CCCOc1ccc2c(c1)CN1CCC(=O)NC1=N2)C1CCCCC1`, the Ratio was 0.77.

For `CN(C(=O)CCCS(=O)(=O)c1ccc2c(c1)CN1CC(=O)NC1=N2)C1CCCCC1`, the Ratio came to 2.1.

Take `CN(C)C(=O)CCCOc1ccc2c(c1)CN1CC(=O)NC1=N2`: the Ratio came out at 0.3.

As to `O=C1CN2Cc3cc(OCCCC(=O)N(CCn4ccnc4)C4CCCCC4)ccc3N=C2N1`, the Ratio was found to be 1.25.

Regarding `C[C@H]1C(=O)NC2=Nc3ccc(OCCCC(=O)N(C)C4CCCCC4)cc3CN21`, the Ratio amounted to 3.

For the molecule `CNC(=O)CCCOc1ccc2c(c1)CN1CC(=O)NC1=N2`, the Ratio was found to be 0.8.

`CN(C(=O)CCCOc1ccc2c(c1)CN1C(=O)CNC1=N2)C1CCCCC1`: the Ratio came out at 0.11.

Turning to `CCN(C(=O)CCCOc1ccc2c(c1)CN1CC(=O)NC1=N2)C1CCCCC1`, the Ratio is 3.5.

Take `COC1=NC2=Nc3ccc(OCCCC(=O)N(C)C4CCCCC4)cc3CN2C1`: the Ratio came out at 0.3.

As for `CN1C(=O)CN2Cc3cc(OCCCC(=O)N(C)C4CCCCC4)ccc3N=C21`, the Ratio came out at 0.5.

As to `CC(C)[C@@H]1C(=O)NC2=Nc3ccc(OCCCC(=O)N(C)C4CCCCC4)cc3CN21`, the Ratio turned out to be 0.6.

For the molecule `CC[C@@H]1C(=O)NC2=Nc3ccc(OCCCC(=O)N(C)C4CCCCC4)cc3CN21`, the Ratio was determined as 1.68.

For `CN(C(=O)CCCOc1ccc2c(c1)CN1C(=O)C(=O)NC1=N2)C1CCCCC1`, the Ratio was 0.4.

As to `CN(C(=O)CCCOc1ccc2c(c1Cl)CN1CC(=O)NC1=N2)C1CCCCC1`, the Ratio amounted to 7.1.

For the molecule `CN(C(=O)CCCOc1ccc2c(c1)CN1C(=N2)NC(=O)[C@H]1CO)C1CCCCC1`, the Ratio was 3.9.

As to `CN(C(=O)CCCOc1ccc2c(c1)CN1C(=N2)NC(=O)C1(C)C)C1CCCCC1`, the Ratio turned out to be 5.1.

For the molecule `CN(C(=O)CCCOc1ccc2c(c1)CN1CC(=O)NC1=N2)C1CCCCCC1`, the Ratio came out at 4.2.

Take `O=C1CN2Cc3cc(OCCCC(=O)N(C(CO)CO)C4CCCCC4)ccc3N=C2N1`: the Ratio was 2.2.

For the molecule `CN(C(=O)CCCOc1ccc2c(c1)NC1=NC(=O)CN1C2)C1CCCCC1`, the Ratio was 0.43.

With `COC(=O)CN(C(=O)CCCOc1ccc2c(c1)CN1CC(=O)NC1=N2)C1CCCCC1`, the Ratio amounted to 5.

Take `O=C1CN2Cc3cc(OCCCC(=O)N(CCN4CCOCC4)C4CCCCC4)ccc3N=C2N1`: the Ratio is 7.8.

`C[C@@H]1C(=O)NC2=Nc3ccc(OCCCC(=O)N(C)C4CCCCC4)cc3CN21`: the Ratio turned out to be 5.

Regarding `CN(C(=O)CCC[S+]([O-])c1ccc2c(c1)CN1CC(=O)NC1=N2)C1CCCCC1` (stereo unspecified), the Ratio was 3.6.

In the case of `NC(=O)CCCOc1ccc2c(c1)CN1CC(=O)NC1=N2`, the Ratio was determined as 0.55.

On to `CC(O)[C@@H]1C(=O)NC2=Nc3ccc(OCCCC(=O)N(C)C4CCCCC4)cc3CN21` (stereo partly specified), for which the Ratio turned out to be 2.3.

As for `O=C1CN2Cc3cc(OCCCc4nnnn4C4CCCCC4)ccc3N=C2N1`, the Ratio stood at 4.

Regarding `CC(O)[C@H]1C(=O)NC2=Nc3ccc(OCCCC(=O)N(C)C4CCCCC4)cc3CN21` (stereo partly specified), the Ratio was found to be 1.7.

System in a further assay: not listed separately
Description: Selectivity index is the ratio of IC25 of rat heart PDE to IC50 of human platelet PDE.
Conditions: not given
Take `CN(C(=O)CCCOc1ccc2nc3n(c(=O)c2c1)CCN3)C1CCCCC1`: the Ratio stood at 0.15.

As to `O=C1CN2Cc3cc(OCCCC(=O)N4CCCC4)ccc3N=C2N1`, the Ratio came to 5.

Take `O=C1CN2Cc3cc(OCCCC(=O)N(CCO)C4CCCCC4)ccc3N=C2N1`: the Ratio stood at 5.6.

Take `CN(C(=O)CCCCCCOc1ccc2c(c1)CN1CC(=O)NC1=N2)C1CCCCC1`: the Ratio was found to be 2.8.

With `O=C(O)CN(C(=O)CCCOc1ccc2c(c1)CN1CC(=O)NC1=N2)C1CCCCC1`, the Ratio came out at 20.

For `O=C1CN2Cc3cc(OCCCC(=O)N(Cc4ccccc4)Cc4ccccc4)ccc3N=C2N1`, the Ratio turned out to be 6.5.

Take `CN(C(=O)CCCCCOc1ccc2c(c1)CN1CC(=O)NC1=N2)C1CCCCC1`: the Ratio came out at 1.75.

With `O=C1CN2Cc3cc(OCCCC(=O)N(C4CCCCC4)C4CCCCC4)ccc3N=C2N1`, the Ratio is 11.

As for `CN(C(=O)CCCCOc1ccc2c(c1)CN1CC(=O)NC1=N2)C1CCCCC1`, the Ratio came to 4.8.

Consider `O=C1CN2Cc3cc(OCCCC(=O)N4CCCC5CCCCC54)ccc3N=C2N1` (stereo unspecified), for which the Ratio was 15.

`CN(C(=O)CCCOc1ccc2c(c1)CN1CC(=O)NC1=N2)C(c1ccccc1)c1ccccc1`: the Ratio is 4.

Take `CN(C(=O)CCCOc1ccc2c(c1)CN1CC(=O)NC1=N2)c1ccccc1`: the Ratio stood at 13.5.

`CN(C(=O)CCCOc1ccc2nc3n(c(=O)c2c1)CC(=O)N3)C1CCCCC1`: the Ratio is 0.53.

Consider `O=C1CN2Cc3cc(OCCCC(=O)N4CCCCC4)ccc3N=C2N1`, for which the Ratio stood at 5.8.

For `CN(C(=O)COc1ccc2c(c1)CN1CC(=O)NC1=N2)C1CCCCC1`, the Ratio was found to be 5.4.

`CN(Cc1ccccc1)C(=O)CCCOc1ccc2c(c1)CN1CC(=O)NC1=N2`: the Ratio is 9.2.

For `O=C1CN2Cc3cc(OCCCC(=O)N4CCCc5ccccc54)ccc3N=C2N1`, the Ratio was 16.

For `O=C1CN2Cc3cc(OCCCC(=O)N4CCOCC4)ccc3N=C2N1`, the Ratio came out at 4.4.
